The values below come from EP1903052A2, “APJ receptor ligands and uses thereof” (Faust Pharmaceuticals SA, priority 2006, dated 2008).

By UniProt entry, the sequences of proteins in these tests, tags left out. Where a name states a change or a piece, a line headed by the entry shows the natural chain unless it says otherwise.
UniProt Q9ULZ1: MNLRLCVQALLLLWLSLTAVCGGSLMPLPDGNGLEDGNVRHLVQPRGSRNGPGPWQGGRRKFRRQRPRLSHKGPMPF

Like-named read-outs stand apart in the source and are kept apart here.

For assay [1], the target named is T1, rat apelin receptor-EGFP (Rattus norvegicus, UniProt Q9JHG3).
T1 construct: expressed in transfected cells; host or cells: CHO cells, stably transfected
T1 sequence (Q9JHG3 1-377): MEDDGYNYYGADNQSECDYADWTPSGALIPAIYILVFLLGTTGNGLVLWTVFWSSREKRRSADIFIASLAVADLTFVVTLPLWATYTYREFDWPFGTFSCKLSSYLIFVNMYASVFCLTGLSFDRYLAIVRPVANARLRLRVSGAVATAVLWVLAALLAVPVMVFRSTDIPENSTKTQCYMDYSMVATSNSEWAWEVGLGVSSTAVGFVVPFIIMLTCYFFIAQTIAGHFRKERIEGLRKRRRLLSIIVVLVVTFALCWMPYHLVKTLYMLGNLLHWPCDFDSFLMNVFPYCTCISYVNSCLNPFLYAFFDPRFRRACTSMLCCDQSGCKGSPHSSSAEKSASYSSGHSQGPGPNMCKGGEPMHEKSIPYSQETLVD
Put plainly: Internalization of the apelin receptor-EGFP in CHO cells (confocal microscopy). The format is cell-based. The following applies: 100 nM, stimulation for 20 min. How it is done: The compound 7 as well as the apelin fragments: fluorescent apelin 13 (lissamine) and non fluorescent apelin 13 were tested on the internalization of the murine apelin receptor tagged with EGFP.
Approximately 2.5 x 10^5 stably transfected CHO cells expressing the rat apelin receptor-EGFP, in Ham's F12 medium, were used to seed polyallylamine hydrochloride-coated (Aldrich Sigma, 0.1 mg/ml for 30 min) 16-well glass slides (Lab-Tek Chamber Slides, Nalge Nunc, Rochester, NY). Cells were cultured overnight in a humidified atmosphere of 5% CO2 / 95% air. To prevent de novo the protein synthesis, cells were incubated for 90 min before plating with 90 µM of cycloheximide at 37°C and cycloheximide was maintained in the medium during and after incubation with ligands. […]
Cells were examined with a Leica TCS SP 2 (Leica Microsystems, Heidelberg, Germany) confocal laser scanning microscope mounted on a Leica DM IRBE inverted microscope equipped with an argon/krypton laser. EGFP fluorescence was detected with 100% excitation at 488 nm, using a RSP 500 (dichroic) mirror with the emission wavelength set at 530-560 nm. […]

For assay [2], the target named is T1, rat apelin receptor-EGFP. The following applies: cited from earlier work.
For a further assay, the target named is T2, rat APJ receptor (Rattus norvegicus, UniProt Q9JHG3).
T2 construct: expressed in transfected cells; host or cells: CHO cells, stably transfected
T2 sequence (Q9JHG3 1-377): T1 sequence (Q9JHG3 1-377)
The following applies: cited from earlier work.

Setting [3] is: 100 nM, Reaux et al., J. Neurochem., 2001.

For the substance “8: fluorescent apelin 13 fragment pE13F tagged with lissamine (QRPRLSHKGPMPF; Apelin-13 pyroglutamate; lissamine label; UniProt Q9ULZ1 65-77, looked up) [Compound 8]”, the “internalization of the rat apelin receptor-EGFP” value with rat apelin receptor-EGFP [1] was “numerous fluorescent vesicles distributed through the cytoplasm”.

In the case of “pE13F: apelin fragment apelin 13 (pE13F), non fluorescent (QRPRLSHKGPMPF; Apelin-13 N-terminal pyroglutamate; UniProt Q9ULZ1 65-77, looked up)”, the “internalization of the rat apelin receptor-EGFP” value with rat apelin receptor-EGFP [2] (setting [3]) is listed as “intense internalization”. Moreover, in the assay with rat apelin receptor-EGFP [2] (at concentrations of 10^-8 M, Reaux et al. 2001, El Messari et al. 2004), the “internalisation of the APJ receptor” value is “massive internalisation”. For the same substance, the “forskolin-stimulated cAMP production” value in the assay with rat APJ receptor (setting [3]) is given as “inhibit”. Also, the half-inhibitory concentration (IC50) in the assay with rat APJ receptor (inhibition of cAMP production induced by forskolin, CHO cell line expressing the murine APJ receptor, De Mota et al., Neuroendocrinology, 2000) was 0.2 nM.

One may read the IC50 as the midpoint of a concentration-inhibition curve.
